{
  "source": "ChEMBL document CHEMBL1146154",
  "about": "“Inhibitors of Plasmepsin II-potential antimalarial agents” (Bioorg Med Chem Lett, 2006)",
  "data": [
    {"tested_on": "Plasmodium falciparum", "assay": "Ratio of IC50 for antimalarial activity to IC50 for PM2 inhibition", "assay_type": "functional", "values": [
      {"smiles": "CCCCCc1ccc(C(=O)N(CCN(CCCC)CCCC)Cc2ccc(-c3ccc4c(c3)OCO4)cn2)cc1", "Ratio IC50": "< 1"},
      {"smiles": "CCCCCc1ccc(C(=O)N(CCN(CCCC)CCCC)Cc2ccc(-c3ccccc3)cn2)cc1", "Ratio IC50": "< 1"},
      {"smiles": "CCCCCc1ccc(C(=O)N(Cc2ccc(-c3ccc(CC(=O)OC)cc3)cc2)C2CCN(CCC(C)C)CC2)cc1", "Ratio IC50": "> 10"},
      {"smiles": "CCCCCc1ccc(C(=O)N(CCN(CCCC)CCCC)Cc2ccc(-c3ccc4c(c3)OCO4)cc2)cc1", "Ratio IC50": "> 10"}
    ]}
  ]
}
